Source: patent US6455550B1, “N-alkanoylphenylalanine derivatives” (Hoffmann-La Roche Inc., priority 1997, dated 2002)

Protein sequences, listed by entry. Tags and fused reporters are not part of them. Residues count along the entry.
UniProt P05556, 21-798 limits assumed: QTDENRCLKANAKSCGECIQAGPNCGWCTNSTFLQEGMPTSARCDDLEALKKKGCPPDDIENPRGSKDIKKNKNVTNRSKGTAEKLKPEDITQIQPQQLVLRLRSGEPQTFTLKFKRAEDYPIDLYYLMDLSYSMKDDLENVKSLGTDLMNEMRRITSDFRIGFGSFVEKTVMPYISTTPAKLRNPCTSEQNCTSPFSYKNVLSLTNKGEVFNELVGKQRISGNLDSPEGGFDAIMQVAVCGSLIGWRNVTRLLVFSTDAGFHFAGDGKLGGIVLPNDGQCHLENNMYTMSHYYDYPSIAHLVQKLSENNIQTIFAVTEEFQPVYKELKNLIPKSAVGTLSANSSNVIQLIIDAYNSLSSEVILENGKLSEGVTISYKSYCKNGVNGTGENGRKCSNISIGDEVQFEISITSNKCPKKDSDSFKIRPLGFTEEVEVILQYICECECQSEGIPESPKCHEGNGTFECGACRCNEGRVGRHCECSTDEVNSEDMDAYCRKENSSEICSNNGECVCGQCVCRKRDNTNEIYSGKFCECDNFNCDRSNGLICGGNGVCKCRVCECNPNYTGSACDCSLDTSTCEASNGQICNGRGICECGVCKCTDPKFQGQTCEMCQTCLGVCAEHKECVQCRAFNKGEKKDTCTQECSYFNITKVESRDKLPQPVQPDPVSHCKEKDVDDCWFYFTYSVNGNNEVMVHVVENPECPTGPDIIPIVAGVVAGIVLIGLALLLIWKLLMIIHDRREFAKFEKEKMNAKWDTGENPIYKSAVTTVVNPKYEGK
UniProt P13612, 34-1032 limits assumed: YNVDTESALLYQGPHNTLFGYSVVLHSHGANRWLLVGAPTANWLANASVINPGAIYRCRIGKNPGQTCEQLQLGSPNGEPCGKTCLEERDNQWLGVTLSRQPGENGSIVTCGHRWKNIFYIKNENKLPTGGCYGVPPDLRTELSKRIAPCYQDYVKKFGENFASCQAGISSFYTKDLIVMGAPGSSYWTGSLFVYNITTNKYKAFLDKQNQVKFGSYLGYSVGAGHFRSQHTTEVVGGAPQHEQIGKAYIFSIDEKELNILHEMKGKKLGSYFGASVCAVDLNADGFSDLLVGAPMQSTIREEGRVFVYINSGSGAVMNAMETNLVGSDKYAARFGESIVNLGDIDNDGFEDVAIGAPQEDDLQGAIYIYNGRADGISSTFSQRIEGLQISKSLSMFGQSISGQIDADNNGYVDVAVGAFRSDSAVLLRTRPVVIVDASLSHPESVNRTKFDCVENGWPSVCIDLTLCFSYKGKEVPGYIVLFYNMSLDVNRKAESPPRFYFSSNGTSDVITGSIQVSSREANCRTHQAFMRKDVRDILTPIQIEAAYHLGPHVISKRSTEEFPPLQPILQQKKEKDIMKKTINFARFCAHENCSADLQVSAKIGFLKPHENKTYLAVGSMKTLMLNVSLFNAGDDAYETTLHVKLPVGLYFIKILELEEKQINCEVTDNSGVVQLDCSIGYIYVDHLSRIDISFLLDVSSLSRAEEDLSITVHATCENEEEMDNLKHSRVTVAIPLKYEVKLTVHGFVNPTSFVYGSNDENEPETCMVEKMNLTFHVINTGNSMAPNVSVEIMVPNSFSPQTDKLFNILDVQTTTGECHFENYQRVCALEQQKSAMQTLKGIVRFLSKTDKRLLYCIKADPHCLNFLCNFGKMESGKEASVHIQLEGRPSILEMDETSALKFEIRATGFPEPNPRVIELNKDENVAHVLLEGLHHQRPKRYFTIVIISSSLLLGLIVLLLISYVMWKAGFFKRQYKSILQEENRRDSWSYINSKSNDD

Target: VLA-4 (α4β1 integrin) binding to immobilized VCAM-1 (Homo sapiens, UniProt P05556+P13612)
Assay: VLA-4/VCAM-1 Screening Assay (solid-phase, dual antibody ELISA)
Conditions: % inhibition of total binding

% Inh. @ conc. (conc. 10 nM): 50%
% Inh. @ conc. (conc. 100 nM): 86%
Structure (SMILES): CC1(C)C2CCC1(C)C(C(=O)O)C2C(=O)N[C@@H](Cc1ccc(NC(=O)c2ccnc3ccccc23)cc1)C(=O)O (some centres unmarked)
